This assay deals with T1, DPP-4 (manufactured by Sigma, derived from porcine kidney) (Sus scrofa, UniProt P22411).
T1 construct: derived from porcine kidney; purchased Sigma; host or cells: porcine kidney (tissue-derived)
Description: DPP-4 inhibition rate and IC50 measurement, fluorescence of AMC freed from Gly-Pro-MCA. The class given is biochemical. The following applies: Table 2; for Inhibition rate (%) at 0.35 mg/ml time: sample 0.35 mg/ml, substrate Gly-Pro-MCA, pH 7.5, 37° C.; for IC50 value: sample concentration changed between 0.001 and 7.2 μmol/ml. As for the experimental part:
A sample liquid 35 μl obtained by dissolving a sample 1 mg in 50 mM tris-hydrochloric acid buffer (pH 7.5) 1 ml and DPP-4 (manufactured by Sigma, derived from porcine kidney; 8.6 mU/ml) 15 μl that had been dissolved in 50 mM tris-hydrochloric acid buffer (pH 7.5) were mixed in a microtiter plate well (manufactured by NUNC, trade name “237015”) and incubated at 37° C. for 10 minutes.
Thereto, 50 μl of a substrate solution (one obtained by dissolving glycyl-Pro-4-methylcoumarin-7-amide (Gly-Pro-MCA) in 50 mM tris-hydrochloric acid buffer (pH 7.5) so as to be 10 μM) that had in advance heated to and kept at 37° C. was added, mixed, and allowed to react at 37° C. for 20 minutes.
The fluorescence intensity of 7-amino-4-methylcoumarin (AMC) that was freed by DPP-4 was measured with time by a microplate reader type fluorescence detector (manufactured by Corona Electric Co., Ltd., trade name “SH-9000”). Note that the measurement wavelength was an excitation wavelength of 380 nm and a measurement wavelength of 460 nm. Note that one obtained by using the same amount of 50 mM tris-hydrochloric acid buffer (pH 7.5) in replace of the sample was used as a control; and the fluorescence intensity thereof was measured.
The activity of DPP-4 was expressed by an average gradient of change in the amount of the fluorescence intensity during the reaction time; and, as for DPP-4 inhibition rate, difference obtained by, with the control as 100%, subtracting the activity of the sample from the above-mentioned control was calculated as an inhibition rate (%).
In accordance with the above method of measuring a DPP-4 inhibition rate, sample concentration was changed between 0.001 and 7.2 μmol/ml to obtain the inhibition rate, thereby calculating the 50% inhibitory concentration (IC50 value) of the activity of DPP-4.

For “Hyp-Gly (PG; non-natural residues) [Comparative Example 7, reference compound]”, the “Inhibition rate (%) at 0.35 mg/ml time” value stood at 0% and the IC50 value result was “No inhibitory”.
With “Ala-Hyp (AP; non-natural residues) [Comparative Example 6, reference compound]”, the “Inhibition rate (%) at 0.35 mg/ml time” value is 0% and the IC50 value result is given as “No inhibitory”.
The like results for “Phe-Hyp (FP; non-natural residues) [Comparative Example 4, reference compound]” were, in that order, 0% and “No inhibitory”.
Turning to “Pro-Hyp (PP; non-natural residues) [compound 5, reference compound]”, the “Inhibition rate (%) at 0.35 mg/ml time” value was 0% and the IC50 value result is “No inhibitory”.

(Values after patent US9340579B2, “DPP-4 inhibitor” (NIPPI, INCORPORATED, priority 2011, dated 2016).)
